Bioassay records as filed in PubChem BioAssay.
Shown are actives, neighbours in structure and some others; about 1% of the full set was active somewhere.
Rtt109 HAT inh – blocks Candida albicans Rtt109/Vps75 acetyltransferase activity; Q5AAJ8; AID 540336; hit rate 0.16% among 330,000; inhibition, % at 34.9 µM; purified Rtt109/Vps75, ThioGlo CoA-SH fluorescence, 4 h;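 active means inhibition of at least 50% in every replicate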
C2C12 statin – suppression of simvastatin myotoxicity | AID 602340 | rescue of ATP level, % at 7.49 µM | hit rate 0.78% among 330,000 | C2C12 myotubes + simvastatin, ATP luminescence, 48 h; scaled: DMSO 0, geranylgeraniol control 100;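 active means mean ATP rescue above about 67%, or every replicate alone reaching that limit, limit read from the data, passing the limit was not always enough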;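 further: myotubes were challenged with 10 µM simvastatin during compound exposure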
Yeast UUG start – modulators of yeast start codon fidelity, primary screen, whole organism, S. cerevisiae, single point, plate reader | AID 602363, 2012 | actives 0.13% (n = 350,000) | activity score, % at 18.7 µM | S. cerevisiae UUG-firefly luciferase reporter, luminescence/redox ratio;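 active means replicate mean at a twofold rise or more, about +100% in these data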;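 further: firefly luciferase made from a UUG start codon reports start codon fidelity; reporter light over untreated wells divided by growth signal over untreated wells; some hits fall short of that in this replicate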
Cneo AK release – Cryptococcus neoformans lysis via adenylate kinase release; hit rate 0.2% among 360,000; lysis activity, % at 15 µM; AID 651654; C. neoformans lysis, adenylate kinase release luminescence, 4 h; normalised: neutral wells 0, clomiphene wells 100;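 active means mean lysis activity across replicates of at least 80%, whatever share of replicates individually reach that level; inactive means mean lysis activity below 80%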
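Test system: log-phase Cryptococcus neoformans yeast cells; Quantity: yeast cell density of 5 × 10^6 cells/mL; Buffer or medium: YPD; Doses: single compound concentration per well; Timing: 4 h at 37 °C static, read 1 h later; Measured by: AK luminescence; Read-out basis: lysis from increased AK signal; Control set: Clomiphene as positive control.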
CDK5 inh – blocks human CDK5/p35 kinase activity. inhibition, % at 10 µM. hit rate 0.01% among 330,000. AID 488839. Recombinant CDK5/p35, ADP-Glo luminescence, 60 min. Q00535+Q15078;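 active means highest replicate inhibition of at least 50% and at least 75% of replicates reaching 50%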;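 further: plate controls were DMSO neutral control for no effect and GW8510 at 10 µM for full effect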
* = called active by the depositor; . = no result.

1. Cc1ccc(S(=O)(=O)Nc2ccc3c(c2)C(=O)N([C@@H](C)CO)C[C@@H](C)[C@H](CN(C)S(=O)(=O)c2cccs2)O3)cc1
2. Cc1noc(C)c1S(=O)(=O)Nc1ccc2c(c1)CC(=O)N([C@H](C)CO)C[C@H](C)[C@H](CN(C)S(=O)(=O)c1cccs1)O2
3. CN1[C@@H]2c3ccc(-c4cccnc4)c(=O)n3C[C@@H]2[C@@H](CO)[C@@H]1C(=O)NCC1CCCCC1
4. O=C(CCCCCN1C(=O)c2ccccc2C1=O)Nc1ccc2c(c1)OCCO2
5. Cc1cccc(NC(=O)CCN2C(=O)c3ccccc3C2=O)c1
6. Cc1cccc(NC(=O)CCCCCN2C(=O)c3ccccc3C2=O)n1
7. Cc1cccc(NC(=O)CCCN2C(=O)c3ccccc3C2=O)n1
8. CCCCCCOc1ccc(C(CC(N)=O)C(=O)O)cc1 (configuration not stated)

assay / entry | 1 | 2 | 3 | 4 | 5 | 6 | 7 | 8
Cneo AK release | -0.8 | 115.1* | -1.5 | -2.2 | -1.8 | -0.3 | 1.4 | -0.9
CDK5 inh | . | . | . | -0.9 | 0.7 | 0.9 | 1.5 | 0.2
Rtt109 HAT inh | . | . | . | 1.4 | 59.0* | 19.0 | . | -0.4
C2C12 statin | 99.6* | -14.7 | 19.3 | 109.0* | 4.1 | 92.4* | . | 107.2*
Yeast UUG start | 0.6 | 21.4 | . | -6.9 | 8.4 | -6.4 | 0.3 | -26.0

9. O=C(Nc1cccc(Cl)c1)c1nc[nH]c1C(=O)NCCCNC(=O)c1[nH]cnc1C(=O)Nc1cccc(Cl)c1
10. CCCNC(=O)[C@@H]1[C@@H](CO)[C@@H]2Cn3c(ccc(C4=CCCC4)c3=O)[C@@H]2N1CCC
11. CC(C)(C)NC(=O)CSc1nnc(-c2ccccc2)c(-c2ccccc2)n1
12. CC(=O)NNC(=O)CSc1nnc(-c2ccccc2)c(-c2ccccc2)n1
13. O=C(Nc1ccc(F)c(Cl)c1)C1CCCN(c2cnccn2)C1 (configuration not stated)
14. C#CCOc1c(Br)cc(/C=N\NC(=O)CN2CCOCC2)cc1OCC
15. C#CCOc1c(Br)cc(/C=N/O)cc1OCC
16. Cc1ccc(NC(=O)C2(c3ccccc3)CC2(Cl)Cl)cc1C (configuration not stated)

assay / entry | 9 | 10 | 11 | 12 | 13 | 14 | 15 | 16
Cneo AK release | 0.5 | 0.2 | -1.3 | 92.5* | -4.2 | -2.0 | -5.7 | -1.1
CDK5 inh | 0.4 | . | -1.1 | -7.3 | -1.2 | 2.3 | -0.1 | 1.4
Rtt109 HAT inh | -6.8 | . | 9.0 | -2.0 | -2.9 | -0.1 | 25.9 | 3.6
C2C12 statin | 105.8* | 7.1 | -7.6 | -7.0 | 110.2* | 103.3* | 0.8 | 143.1*
Yeast UUG start | 1.8 | . | 6.5 | -21.3 | -25.3 | -8.6 | 8.2 | 4.4

17. COc1cc(C(=O)Oc2cccc(C=O)c2)cc(OC)c1OC
18. COc1cc(C(=O)Oc2ccccc2N)cc(OC)c1OC
19. C[C@@H]1CN([C@H](C)CO)C(=O)Cc2cc(NS(=O)(=O)c3ccccc3)ccc2O[C@H]1CN(C)C(=O)Nc1ccc2c(c1)OCO2
20. COc1ccc(Br)cc1CN(C)C(C)C(=O)Nc1cccc(C(C)=O)c1 (configuration not stated)
21. COc1ccccc1CN(C)C(C)C(=O)Nc1cccc(C(C)=O)c1 (configuration not stated)
22. COc1ccc(CNC(=O)c2c(O)c3cccc4c3n(c2=O)CCC4)cc1OC
23. C[C@@H]1CN([C@H](C)CO)C(=O)c2cccc(NC(=O)C3CC3)c2O[C@@H]1CN(C)S(=O)(=O)c1ccc(F)cc1
24. O=C(C[C@@H]1CC[C@H]2[C@@H](COC[C@@H](O)CN2S(=O)(=O)c2ccccc2)O1)NCCN1CCCCC1

assay / entry | 17 | 18 | 19 | 20 | 21 | 22 | 23 | 24
Cneo AK release | 0.6 | 91.7* | . | . | 1.2 | -1.2 | -21.3 | -0.7
CDK5 inh | 1.9 | 1.4 | . | 0.5 | -0.2 | -0.9 | . | .
Rtt109 HAT inh | 11.5 | 0.1 | . | 52.7* | 4.2 | -1.5 | . | .
C2C12 statin | 5.3 | 11.2 | -7.7 | . | -1.7 | 78.9* | -27.0 | -29.7
Yeast UUG start | 2.7 | 5.2 | . | . | -11.8 | -26.3 | -6.9 | 1.5

25. CCOC(=O)c1sc(NC(=O)CN(CC(C)C)CC(C)C)c(C(=O)OCC)c1C
26. C[C@H]1CN([C@@H](C)CO)C(=O)c2cccc(NS(=O)(=O)c3ccc(Cl)cc3)c2O[C@H]1CN(C)S(C)(=O)=O
27. O=S(=O)(Nc1nc2c(s1)CCCC2)c1ccc2ccccc2c1
28. O=S(=O)(NC1=NCCCCC1)c1ccc2sc(NS(=O)(=O)c3ccc4ccccc4c3)nc2c1
29. CN1C(=O)c2cc(NC(=O)C3CCCC3)ccc2OC[C@H]2O[C@H](CC(=O)NCC3CC3)CC[C@@H]21
30. COC(=O)c1cn(Cc2ccc(C(F)(F)F)cc2)cc(F)c1=O

assay / entry | 25 | 26 | 27 | 28 | 29 | 30
Cneo AK release | 2.3 | -1.6 | 0.9 | 4.8 | 0.6 | 3.0
CDK5 inh | 0.2 | . | 1.4 | 1.4 | . | -0.2
Rtt109 HAT inh | -12.8 | . | 17.1 | 8.9 | . | 6.9
C2C12 statin | 73.9* | . | 122.6* | 42.8 | 17.0 | 102.6*
Yeast UUG start | 5.1 | 0.8 | -19.1 | -8.0 | 15.8 | -18.1
